One assay addresses hNOPr (Homo sapiens, UniProt P41146). Conditions: read-out: Opioid receptor affinity Ki hNOPr; [3H]-Nociceptin 0.5 nM.
For a further assay, the target named is hKOPr (Homo sapiens, UniProt P41145). Conditions: read-out: Opioid receptor affinity Ki hKOPr; [3H]-U69593 1.5 nM.
The next assay has as its target hMOPr (Homo sapiens, UniProt P35372). Conditions: summary of the binding panel MOP/NOP/KOP/DOP.

Consider four molecules from US20240327383A1 (priority 2021, published 2024).

As to `Cc1ccc2c(c1)n(CCN1CCOCC1)c(=O)n2C1CCN([C@H]2CC[C@@H](C(C)C)CC2)CC1`, on hNOPr, the inhibition constant (Ki) amounted to 329 nM.
As for `O=C1NCc2cc(Cl)c(Cl)cc2N1C1CCN(Cc2ccccc2F)CC1`, the Ki on hKOPr was 0.75 nM; at hNOPr, 26.3 nM.
In the same order, the values of `O=C1NCc2cc(Cl)c(Cl)cc2N1C1CCN(Cc2ccccc2Cl)CC1` are 0.75 nM and 13.6 nM.
Take `CC(C)C1CCC(N2CCC(N3C(=O)N(CCN4CCOCC4)Cc4cc(Cl)c(Cl)cc43)CC2)CC1` (centres unmarked): at hMOPr, the “selectivity and affinity for MOP receptor and KOP receptor (in words)” value was “high selectivity and high affinity for MOP receptor and KOP receptor”. For the same molecule, the inhibitory constant (Ki) was 7.34 nM at hKOPr and 31.9 nM on hNOPr.

A word on the Ki: it is a measure of affinity in units of concentration, obtained from inhibition or displacement.
